Test results from ChEMBL document CHEMBL2321749, “Incorporation of rapid thermodynamic data in fragment-based drug discovery” (J Med Chem, 2013).

By UniProt entry, the sequences of proteins in these tests, tags left out.
UniProt P28482, whole entry: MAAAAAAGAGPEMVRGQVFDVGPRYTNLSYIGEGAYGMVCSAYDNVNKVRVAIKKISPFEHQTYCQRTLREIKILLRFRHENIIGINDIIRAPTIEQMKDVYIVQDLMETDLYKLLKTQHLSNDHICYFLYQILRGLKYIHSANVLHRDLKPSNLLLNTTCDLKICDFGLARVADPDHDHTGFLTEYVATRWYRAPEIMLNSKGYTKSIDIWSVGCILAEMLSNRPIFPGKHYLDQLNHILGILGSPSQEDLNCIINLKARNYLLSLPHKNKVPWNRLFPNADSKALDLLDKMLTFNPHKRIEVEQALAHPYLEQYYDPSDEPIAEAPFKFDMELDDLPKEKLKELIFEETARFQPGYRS

Biological target: Mitogen-activated protein kinase 1 (Homo sapiens, UniProt P28482)
Experiment: Binding affinity to ERK2 (unknown origin) by isothermal titration calorimetry

Compound Nc1n[nH]c2nnc(-c3c(-c4ccccc4)nn4ccccc34)cc12 has a Kd of 850 nM.
